Measurements taken from article PMC8682993 (Science Advances, 2021).
Where “and” joins values, the source holds several entries; their conditions need not be identical. Equal entries are not always repeated.

Molecular target: full-length yeast Hsp90 (Hsp82) (yeast, UniProt P02829)
Test: fluorescence polarisation

Kd: 5.3 µM and 5 µM and 5.4 µM and 5.5 µM
B1: human Tau isoform D (natural protein)
chain: not shown
modifications: ATTO 488 N-hydroxysuccinimide ester on the N terminus (anisotropy and AUC); 15N-labeled in the Tau-observed NMR experiment
